Here are results for 63 molecules from PubChem BioAssay AID588814 (The Scripps Research Institute Molecular Screening Center, 2011).

By UniProt entry, the sequences of proteins in these tests, tags left out. Where a name states a change or a piece, a line headed by the entry shows the natural chain unless it says otherwise.
UniProt P11229: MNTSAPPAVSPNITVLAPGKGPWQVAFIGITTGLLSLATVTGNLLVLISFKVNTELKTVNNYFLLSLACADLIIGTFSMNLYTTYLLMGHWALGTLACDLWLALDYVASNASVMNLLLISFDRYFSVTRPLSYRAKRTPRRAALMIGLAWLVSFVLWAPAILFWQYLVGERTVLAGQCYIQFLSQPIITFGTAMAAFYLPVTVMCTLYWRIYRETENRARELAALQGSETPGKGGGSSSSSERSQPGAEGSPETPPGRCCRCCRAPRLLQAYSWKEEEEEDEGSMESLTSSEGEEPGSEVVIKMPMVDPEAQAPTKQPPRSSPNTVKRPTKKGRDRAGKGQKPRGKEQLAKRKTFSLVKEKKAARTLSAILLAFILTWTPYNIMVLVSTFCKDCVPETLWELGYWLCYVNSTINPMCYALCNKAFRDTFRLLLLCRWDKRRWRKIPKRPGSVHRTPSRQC

Only a part is listed here, and it is no random draw. Active and inactive are the calls of the source.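 Rule for the calls: active = activation above the run's mean compound activation plus 3 SD (cut at about 16% in these data); inactive = the rest.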

This test has as its target Muscarinic acetylcholine receptor M1 (Homo sapiens) (UniProt P11229). The experiment in a line: CHRM1 activation via calcium signal – Fluo-8 calcium fluorescence, CHO-K1 cells, HTS, primary screen (AID 588814).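 Note: peak over basal fluorescence ratio within a 140 s kinetic read after compound addition.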 To be noted: CHO-K1 hM1, Fluo-8 calcium fluorescence, agonist mode; at 3 µM; stronger effect = higher value; 0% DMSO, 100% acetylcholine EC100.
For `O=P(Nc1nc2ccc(Cl)cc2s1)(c1ccccc1)c1ccccc1`, the activation is inactive: -1.56%.

Turning to `CN(C)P(=O)(N(C)C)n1c(Nc2ccccc2)nnc1-c1ccccc1`, the activation was inactive: -6.01%.

On to `O=[N+]([O-])C1C(O)C(O)C([N+](=O)[O-])C(O)C1O` (stereo not drawn), for which the activation was inactive: -1.82%.

As for `Nc1cc(N)c2nonc2c1[N+](=O)[O-]`, the activation is inactive: -2.19%.

For `CC(C)CC(=O)NC(Sc1ccc(Cl)cc1)C(Cl)(Cl)Cl` (stereo not drawn), the activation was inactive: -8.08%.

For the molecule `O=C(NC(Sc1ccncn1)C(Cl)(Cl)Cl)c1ccccc1` (stereo not drawn), the activation is inactive: -3.5%.

Regarding `Oc1ccccc1CNc1ccccn1`, the activation is inactive: -6.88%.

As to `Cc1ccc(OP(=O)(Nc2nccs2)Oc2ccc(C)cc2)cc1`, the activation is inactive: 1.55%.

Consider `COc1ccccc1OP(=O)(Nc1ccc(C)cn1)Oc1ccccc1OC`, for which the activation was inactive: -4.21%.

In the case of `CC(C)[C@H]1C(=O)O[C@@H]2CCN3CC=C(COC(=O)[C@](C)(O)[C@]1(C)O)[C@H]23`, the activation was inactive: -8.18%.

`CN1CCCC(OC(=O)C(c2ccccc2)c2ccccc2)C1` (stereo not drawn): the activation was inactive: -5.85%.

For the molecule `Clc1ccc(Cl)c(NC2=NCC(CBr)S2)c1` (stereo not drawn), the activation was inactive: -8.98%.

As to `NC(=O)c1cc([N+](=O)[O-])cc([N+](=O)[O-])c1N`, the activation is inactive: -2.64%.

As for `Cc1ccc(N/C(=N/P(=O)(N2CCOCC2)N2CCOCC2)N2CCOCC2)cc1`, the activation is inactive: -2.95%.

With `CN(C(=O)Cc1ccc(Cl)c(Cl)c1)[C@H]1CCCC[C@H]1N1CCCC1`, the activation was inactive: -6.26%.

As to `CN(C)C(=O)OCCc1n(C)cc[n+]1C`, the activation is inactive: -12.4%.

For the molecule `CC(C)c1nc(Nc2ccccc2)n(P(=O)(N(C)C)N(C)C)n1`, the activation is inactive: -2.3%.

As for `CC(C)=N/N=C(\N)N[N+](=O)[O-]`, the activation is inactive: -6.8%.

In the case of `CC1CCN(C(=O)Oc2c(Cl)cc(Cl)c3cccnc23)CC1`, the activation was inactive: -2.3%.

On to `c1cc(-c2nn[nH]n2)ccc1-c1nn[nH]n1`, for which the activation was inactive: 2.88%.

Consider `C[N+]1=C2C=CC=CC=C2SC12C([N+](=O)[O-])=CC([N+](=O)[O-])=C[C-]2[N+](=O)[O-]` (stereo not drawn), for which the activation is inactive: 0.51%.

As to `Nc1ccc([As](=O)(O)c2ccc(N)cc2)cc1`, the activation was inactive: 0.49%.

With `CCN(/C(=N/P(=O)(N1CCOCC1)N1CCOCC1)N1CCOCC1)c1ccc(OC)cc1`, the activation is inactive: -3.97%.

Take `CC(=O)N1C2C3N(C(C)=O)C1C1N(C(C)=O)C(C(N1C(C)=O)N3C(C)=O)N2C(C)=O`: the activation was inactive: -1.94%.

Take `O=[N+]([O-])c1cccc2n[nH]nc12`: the activation was inactive: -3.23%.

Consider `O=[N+]([O-])c1cc([N+](=O)[O-])c(CCNc2ccccc2)c([N+](=O)[O-])c1`, for which the activation was inactive: -4.2%.

As for `CCc1nc2c(n1)c1c(non1O)c1c2no[n+]1[O-]`, the activation is inactive: 3.27%.

Regarding `Cc1ccc(NP(=O)(Oc2ccccc2)Oc2ccccc2)nc1`, the activation is inactive: -4.56%.

In the case of `COc1ccc(C2=NCC(CBr)S2)cc1` (stereo not drawn), the activation is inactive: -7.52%.

In the case of `COC(=O)C1(C)COP(=O)(Nc2ccccc2)OC1` (stereo not drawn), the activation was inactive: -1.47%.

For `O=[N+]([O-])c1cccc(NC2=NCC(CBr)S2)c1` (stereo not drawn), the activation is inactive: -2.48%.

On to `O=C(O)CNc1ccc([As](=O)(O)O)cc1`, for which the activation was inactive: -2.6%.

For the molecule `C/C=C1/C[C@@H](C)[C@](O)(CO)C(=O)OCC2=CCN3CC[C@@H](OC1=O)[C@@H]23`, the activation is inactive: -6.27%.

As to `CC(C)(C)C(=O)NC(Sc1ccncn1)C(Cl)(Cl)Cl` (stereo not drawn), the activation is inactive: -1.86%.

As for `O=[N+]([O-])c1ncn(CCn2ncnc2[N+](=O)[O-])n1`, the activation is inactive: -6.14%.

On to `O=C(Nc1cc([As](=O)(O)O)ccc1O)c1ccccc1`, for which the activation is inactive: -1.29%.

As to `O=P1(N(CCCl)CCCl)OCCCS1` (stereo not drawn), the activation was inactive: 2.87%.

On to `C(Cc1nn[nH]n1)Cc1nn[nH]n1`, for which the activation is inactive: -4.73%.

`Nc1ccc([As](=O)(O)c2ccc([N+](=O)[O-])cc2)cc1`: the activation is inactive: -1.58%.

Take `O=C(OC1CN2CCC1CC2)c1cccc(Cl)c1` (stereo not drawn): the activation is inactive: -4.97%.

Take `O=[N+]([O-])c1ncn(CCn2cnc([N+](=O)[O-])n2)n1`: the activation is inactive: 0.06%.

Regarding `CC(=O)NC(SC(=S)N(C)C)C(Cl)(Cl)Cl` (stereo not drawn), the activation is inactive: -3.48%.

Consider `O=[N+]([O-])c1ccc(O)c(/C=N/Nc2ccc([N+](=O)[O-])cc2[N+](=O)[O-])c1`, for which the activation was inactive: -4.09%.

Consider `COc1ccc(CC2NCC(O)C2OC(C)=O)cc1` (stereo not drawn), for which the activation was inactive: -1.75%.

Take `O=[As](O)(c1ccccc1)c1ccc(O)cc1`: the activation is inactive: -1.99%.

In the case of `C[C@H]1OP(=O)(Oc2ccccc2)[C@H](O)[C@H](O)[C@H]1N=[N+]=[N-]` (stereo partly drawn), the activation is inactive: 0.3%.

Consider `O=P(Nc1nc2ccccc2s1)(c1ccccc1)c1ccccc1`, for which the activation is inactive: -3.72%.

For the molecule `COc1ccc(N)c([N+](=O)[O-])c1[N+](=O)[O-]`, the activation is inactive: -3.14%.

In the case of `Nc1ccc(CCCCOc2ccccc2)cc1`, the activation is inactive: 1.52%.

In the case of `O=P(Nc1ccccn1)(c1ccc(Br)cc1)c1ccc(Br)cc1`, the activation is inactive: -4.37%.

`COc1ccc(C[C@H](C)NC[C@@H](O)c2ccc(O)c(NC=O)c2)cc1`: the activation was inactive: -6.39%.

In the case of `c1nnnn1CCn1cnnn1`, the activation was inactive: 0.51%.

Regarding `O=P(Nc1nccs1)(c1ccccc1)c1ccccc1`, the activation was inactive: -3.82%.

Consider `CC(C)C(=O)NC(Sc1ccccc1)C(Cl)(Cl)Cl` (stereo not drawn), for which the activation is inactive: -10.6%.

Take `CC(=O)Nc1ccc(Oc2c([N+](=O)[O-])cc([N+](=O)[O-])cc2[N+](=O)[O-])cc1`: the activation was inactive: -1.39%.

Turning to `CC(=O)Nc1ccc([As](=O)(O)O)c(O)c1`, the activation is inactive: -1.39%.

For `COC(=O)C1(C)COP(=O)(NCc2ccccc2)OC1` (stereo not drawn), the activation was inactive: -1.53%.

For the molecule `CC(=O)c1ccc(N2CC2c2ccncc2)cc1` (stereo not drawn), the activation is inactive: -3.53%.

On to `N#C/C(=C\c1ccc(N(CCBr)CCBr)cc1)C(N)=O`, for which the activation was inactive: -0.83%.

Turning to `C[C@H]1OP(=O)(Oc2ccccc2)C[C@@H]2O[C@@H]21` (stereo partly drawn), the activation is inactive: -0.27%.

Regarding `C[C@@H]1C=CCP(=O)(Oc2ccccc2)O1` (stereo partly drawn), the activation was inactive: -1.24%.

As to `CCN(CC)CCOC(=O)C(O)(c1ccccc1)c1ccccc1`, the activation is inactive: -6.38%.

For the molecule `Cc1ccccc1CN(C)C(=O)COC(=O)C(O)(c1ccccc1)c1ccccc1`, the activation was inactive: 1.39%.
